Measurements published in ChEMBL document CHEMBL2046351, “Discovery of cyclic sulfone hydroxyethylamines as potent and selective β-site APP-cleaving enzyme 1 (BACE1) inhibitors: structure-based design and in vivo reduction of amyloid β-peptides” (J Med Chem, 2012).

Sequences of proteins named here, by UniProt entry; tags and fusion partners are left off. A change or cut given only in a name is not applied to a line headed by its entry.
UniProt P56817: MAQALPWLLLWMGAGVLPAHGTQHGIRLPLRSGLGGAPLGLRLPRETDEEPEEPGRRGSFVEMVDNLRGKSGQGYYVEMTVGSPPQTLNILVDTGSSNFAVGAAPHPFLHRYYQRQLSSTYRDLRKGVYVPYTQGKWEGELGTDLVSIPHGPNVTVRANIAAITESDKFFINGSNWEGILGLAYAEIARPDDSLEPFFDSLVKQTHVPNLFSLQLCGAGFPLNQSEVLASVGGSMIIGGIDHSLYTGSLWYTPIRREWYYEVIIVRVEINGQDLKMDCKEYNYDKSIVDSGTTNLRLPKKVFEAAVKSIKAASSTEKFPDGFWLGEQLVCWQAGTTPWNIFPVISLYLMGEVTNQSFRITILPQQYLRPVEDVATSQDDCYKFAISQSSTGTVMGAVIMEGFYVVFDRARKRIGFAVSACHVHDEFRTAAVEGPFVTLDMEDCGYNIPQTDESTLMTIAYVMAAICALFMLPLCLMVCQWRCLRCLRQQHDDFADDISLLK

Target: Beta-secretase 1 (Homo sapiens, UniProt P56817)

## CC(C)(C)c1cccc(CN[C@H]2CS(=O)(=O)C[C@@H](Cc3cc(F)c4c(c3)C3(CCC(F)(F)CC3)CN4)[C@@H]2O)c1 (racemic)
  IC50: 140 nM
